Patent US6458758B1, “Compositions and methods utilizing nitroxides in combination with biocompatible macromolecules” (Synzyme Technologies, Inc., priority 1993, dated 2002)

Assays:
[1] = Activation of TOPS by nitroxide-labelled proteins (ESR); format: biochemical; conditions: 50 mM TOPS, sodium phosphate buffer pH 7.8, 2 min
Excerpt: FIGS. 18B, 18C, and 18D are ESR spectra showing activation of TOPS by three different nitroxide-labelled human proteins. FIGS. 18B and 18D show TOPS activation by albumin labelled with different species of nitroxide. FIG. 18C is nitroxide-labelled hemoglobin-based oxygen carrier.
As noted herein, the donor/acceptor relationship between two nitroxide containing species provides the ability for sustained nitroxide protection in vivo. The interaction of PNA and TPL as described with several of the embodiments is only one example of additional combinations provided by the invention. […] Thus, as referred to elsewhere herein, the multiple component embodiments may be formulated with different nitroxides or nitroxide-based compounds with different free-electron stabilities.

C57 mice = test: 30-day survival of C57 mice after 10 Gray irradiation; format: in vivo; conditions: PNA 0.5 ml/mouse alone
[2] = system: leukocyte rolling and adhesion to endothelial cells; test: Cigarette smoke induced leukocyte rolling, adhesion and aggregate formation, dorsal skinfold chamber; format: in vivo, Syrian Golden hamsters
Excerpt: The interactions of leukocytes with endothelial cells and platelets are an indicator of the microcirculatory response to several adverse physiological conditions, ranging from localized and systemic ischemia/reperfusion injury, rejection of organ grafts, and the response to the organism to various oxidizing novae. See also Lehr et al., PNAS, […]. The mediator role of reactive oxygen species has been documented in many in vitro and in vivo models and, as a consequence, antioxidants and radical scavengers have been applied to counteract leukocyte activation, aggregation, and adhesion to endothelium and the subsequent microcirculatory dysfunction.

Sprague-Dawley rats = test: Glycerol-induced rhabdomyolysis renal injury survival study; format: in vivo, rat; conditions: albumin as control, 1.25 ml iv twice
Protocol: In an animal model of rhabdomyolysis, a bolus injection of glycerine into a major muscle causes heme-induced renal injury. […] Male Sprague-Dawley rats weighing approximately 275 g were dehydrated overnight (16 h) after having baseline serum creatinine determined. On the following morning, 1.25 ml of either polynitroxide albumin and TEMPOL (10 g/dl) or albumin (10 g/dl) was given via tail vein injection. Immediately following the injection, an IM injection of glycerol (50w in water v/v, 10 ml/Kg) was given, ½ of the dose into each anterior thigh muscle. Two hours after the first injection another identical dose was given via tail vein injection. Referring to FIG. 43, for the next 10 days, survival and serum creatinine were monitored.

[3] = In vivo EPR of mouse skin: intradermal PNA and intravenous ^15N-TPL; conditions: 5 minutes after intradermal PNA (100 μl, 10 g/dl) at the belly
Protocol: Thirty minutes later the spectrum in (C) was recorded.
The intensity of the low field ^15N-TPL peak is plotted against time. […]. The ^15N-TPL signal rose after injection, then fell sharply within 5 minutes, reflecting bioreduction.
FIGS. 42A and 42B show the pharmacokinetics of intravenous ^15N-TPL (1% v/w) measured at a patch of skin on the abdomen of the mouse. (A) The low field peak intensity rose and fell and fall within 5 minutes after the injection of ^15N-TPL.
A custom-built bridged loop-gap surface resonator, absorption microwave bridge was used for in vivo EPR spectroscopy at 1.25 GHz (L-band) in the mouse. […] The anesthetized mouse was placed in a ‘sandwich’ of two templates which allowed it to be placed on the loop-gap surface resonator, absorption microwave bridge in either the supine position, for spectroscopy of the back of the head, or in the prone position for spectroscopy of the abdomen. A tail vein cannula was used for intravenous injection of ^15N-TEMPOL; this injection site was remote from the resonator.
The spectrum was made 1 minute after ^15N-TPL was injected via the tail vein. […] FIG. 40B was recorded at approximately ⅕ of the instrument gain used in FIG. 40A in order to accommodate the ^15N-TPL signal.

[4] = system: Chinese Hamster V79 cells; test: Radioprotection of Chinese Hamster V79 cells at 12 Gray; format: cell-based; conditions: 12 Gray x-ray; cells pretreated 10 minutes prior to irradiation
Protocol: FIG. 16 is a bar graph showing the surviving fraction of Chinese Hamster V79 cells at 12 Gray radiation. The V79 cells were pretreated 10 minutes prior to x-ray irradiation.
Based on a radiation dosage scale developed by the National Cancer Institute, chinese hamster cell cultures are exposed to ionizing radiation in the presence of radioprotective chemical agents.

## PNA
[1]
  activation of TOPS (ESR peak intensity): substantially greater peak intensity
C57 mice
  survival outcome: all mice die on or about day 15; also recorded: all ten mice died on day 15
[2]; 15 MINUTES
  aggregate formation: 0.9 ± 0.7 /30 sec
  arteriolar rolling: 0.0 ± 0.0 /mm
  arteriolar sticking: 0.0 ± 0.0 /mm^2
  venular rolling: 5.8 ± 0.8%
  venular sticking: 0.0 ± 0.0 /mm^2
[2]; 60 MINUTES
  aggregate formation: 1.2 ± 0.8 /30 sec
  arteriolar rolling: 0.0 ± 0.0 /mm
  arteriolar sticking: 0.0 ± 0.0 /mm^2
  venular rolling: 6.3 ± 1.8%
  venular sticking: 0.0 ± 0.0 /mm^2
[2]; BASELINE
  aggregate formation: 0.4 ± 0.5 /30 sec
  arteriolar rolling: 0.0 /mm
  arteriolar sticking: 0.0 /mm^2
  venular rolling: 5.2 ± 0.8%
  venular sticking: 0.0 ± 0.0 /mm^2
[2]; cigarette smoke, compared with saline-treated controls
  leukocyte activation: inhibited activation
Sprague-Dawley rats
  glycerol-induced renal injury: reduce glycerol-induced renal injury
[3]
  reoxidation of ^15N-TPH in skin: essentially complete
[4]
  surviving fraction of V79 cells: 2%

Entries after “also recorded” stand apart in the source; their conditions may differ.
